Data: patent publication US7417124B2, “Antibodies specific for phosphorylation sites and screening methods using the same antibodies” (Zeria Pharmaceutical Co., Ltd., priority 2003, dated 2008)

Tested on: phosphorylation in the linker regions of Smad proteins
Assay: Smad linker region phosphorylation in TGF-β-treated myofibroblasts, immunoprecipitation and immunoblotting with phosphorylation-specific antibodies
Type: cell-based, rat

## O=[N+]([O-])c1ccc(-c2nc(-c3ccncc3)c(-c3ccc(F)cc3)[nH]2)cc1 [PD169316]
  phosphorylation in the linker regions of Smad proteins: inhibited
